Data reported in PubChem BioAssay (Tox21).
Where “and” joins values, the source holds several entries; their conditions need not be identical. Equal values may be shown once. This is a selection; strong and weak results do not stand in their true shares. Inconclusive results are not listed. Calls of active or inactive are those of the source. Unless noted, the call rests on the fitted dose curve.

Sequences of proteins named here, by UniProt entry; tags and fusion partners are left off.
UniProt P30968, whole entry: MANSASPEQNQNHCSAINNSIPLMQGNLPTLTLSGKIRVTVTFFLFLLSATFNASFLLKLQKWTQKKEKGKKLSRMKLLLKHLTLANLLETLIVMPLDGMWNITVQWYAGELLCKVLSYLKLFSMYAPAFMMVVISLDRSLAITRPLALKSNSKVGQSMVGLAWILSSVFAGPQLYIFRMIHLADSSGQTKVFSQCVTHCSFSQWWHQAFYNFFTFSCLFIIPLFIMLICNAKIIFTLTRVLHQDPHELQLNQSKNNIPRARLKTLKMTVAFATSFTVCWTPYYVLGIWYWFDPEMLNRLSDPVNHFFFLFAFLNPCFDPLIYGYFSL
UniProt Q969F8, whole entry: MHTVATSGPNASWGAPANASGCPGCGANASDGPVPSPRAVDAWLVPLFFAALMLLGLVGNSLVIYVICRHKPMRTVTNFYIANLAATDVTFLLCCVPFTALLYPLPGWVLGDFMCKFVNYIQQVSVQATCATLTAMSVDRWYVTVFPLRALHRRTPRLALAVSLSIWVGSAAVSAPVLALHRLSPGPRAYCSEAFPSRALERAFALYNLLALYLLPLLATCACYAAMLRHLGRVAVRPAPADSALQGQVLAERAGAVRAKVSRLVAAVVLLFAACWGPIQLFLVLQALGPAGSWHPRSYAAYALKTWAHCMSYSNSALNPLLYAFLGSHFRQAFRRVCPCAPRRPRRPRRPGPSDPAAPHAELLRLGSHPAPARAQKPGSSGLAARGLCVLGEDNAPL
UniProt P28223, whole entry: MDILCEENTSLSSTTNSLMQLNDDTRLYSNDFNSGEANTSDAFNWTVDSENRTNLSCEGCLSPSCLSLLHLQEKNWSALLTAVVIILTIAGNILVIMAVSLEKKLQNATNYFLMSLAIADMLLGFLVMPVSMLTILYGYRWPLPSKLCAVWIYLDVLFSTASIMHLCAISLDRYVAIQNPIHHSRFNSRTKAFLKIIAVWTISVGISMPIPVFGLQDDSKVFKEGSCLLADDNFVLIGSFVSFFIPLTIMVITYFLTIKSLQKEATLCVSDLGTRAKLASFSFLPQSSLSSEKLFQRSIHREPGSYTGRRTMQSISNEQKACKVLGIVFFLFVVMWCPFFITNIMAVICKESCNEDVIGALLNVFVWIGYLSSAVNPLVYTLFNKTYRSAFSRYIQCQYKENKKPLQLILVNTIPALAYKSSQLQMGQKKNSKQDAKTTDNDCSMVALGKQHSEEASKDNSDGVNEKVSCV
UniProt P11229, whole entry: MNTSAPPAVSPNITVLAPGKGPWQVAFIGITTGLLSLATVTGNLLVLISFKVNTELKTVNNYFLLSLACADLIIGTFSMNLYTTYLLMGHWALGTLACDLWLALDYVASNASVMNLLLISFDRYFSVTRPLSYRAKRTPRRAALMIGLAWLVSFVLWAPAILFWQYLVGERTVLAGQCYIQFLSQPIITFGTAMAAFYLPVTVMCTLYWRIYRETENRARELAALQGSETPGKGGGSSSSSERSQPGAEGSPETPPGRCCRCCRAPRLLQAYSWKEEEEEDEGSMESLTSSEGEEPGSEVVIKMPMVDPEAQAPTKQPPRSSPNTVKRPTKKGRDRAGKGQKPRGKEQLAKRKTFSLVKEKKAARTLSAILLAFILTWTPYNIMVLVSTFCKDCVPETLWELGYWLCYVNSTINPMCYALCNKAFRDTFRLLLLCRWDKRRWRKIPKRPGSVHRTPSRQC
UniProt P07550, whole entry: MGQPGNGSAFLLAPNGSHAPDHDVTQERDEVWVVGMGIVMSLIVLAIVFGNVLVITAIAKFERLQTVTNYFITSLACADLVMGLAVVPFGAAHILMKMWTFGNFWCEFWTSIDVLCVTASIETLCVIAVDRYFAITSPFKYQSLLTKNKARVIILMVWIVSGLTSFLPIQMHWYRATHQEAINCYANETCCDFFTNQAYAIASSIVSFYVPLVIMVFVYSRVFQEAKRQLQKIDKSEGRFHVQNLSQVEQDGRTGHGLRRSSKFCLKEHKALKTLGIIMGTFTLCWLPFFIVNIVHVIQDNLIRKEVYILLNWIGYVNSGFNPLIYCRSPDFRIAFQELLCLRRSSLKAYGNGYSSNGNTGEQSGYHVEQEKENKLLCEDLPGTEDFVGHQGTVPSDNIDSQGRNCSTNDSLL
UniProt P14416, whole entry: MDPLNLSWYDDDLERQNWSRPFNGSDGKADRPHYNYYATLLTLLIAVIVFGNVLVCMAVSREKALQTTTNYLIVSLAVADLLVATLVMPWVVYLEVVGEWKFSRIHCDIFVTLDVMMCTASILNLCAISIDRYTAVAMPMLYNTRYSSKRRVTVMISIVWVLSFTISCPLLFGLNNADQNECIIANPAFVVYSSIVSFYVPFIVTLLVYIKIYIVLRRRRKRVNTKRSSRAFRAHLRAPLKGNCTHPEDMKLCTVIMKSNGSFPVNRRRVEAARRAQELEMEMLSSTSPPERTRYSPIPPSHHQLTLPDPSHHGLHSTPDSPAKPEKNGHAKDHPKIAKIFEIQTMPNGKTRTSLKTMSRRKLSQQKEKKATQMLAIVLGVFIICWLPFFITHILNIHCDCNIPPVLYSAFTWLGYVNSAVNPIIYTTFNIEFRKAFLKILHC

Key:
[1] = Nuclear factor erythroid 2-related factor 2/antioxidant responsive element (Nrf2/ARE) small molecule agonists: qHTS cell viability counter screen in human keratinocytes (AID 1919968; active means well fitted curve in the direction sought with a large enough effect in the repeat runs; an effect the other way counts as inactive or inconclusive; further: nearly all actives have a fitted effect of over 55% in size); details: KeratinoSens HaCaT ARE cells viability, CellTiter-Fluor, 24 h; at 92.4 µM (top of the series) unless noted
In short: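 In human HaCaT keratinocytes stably expressing an ARE-driven luciferase, compound exposure lasted 23 h at 37 C under 5% CO2. Viable cells are quantified with a protease-based fluorogenic reagent (CellTiter-Fluor) read 1 h after addition.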

[2] = Nuclear factor erythroid 2-related factor 2/antioxidant responsive element (Nrf2/ARE) small molecule agonists: luciferase reporter gene qHTS assay in human keratinocytes (AID 1919969); details: KeratinoSens HaCaT ARE-luciferase, luminescence, 24 h; at 92.4 µM (top of the series) unless noted; further: nearly all actives have a fitted effect of over 35% in size
From the text: National Center for Advancing Translational Sciences [NCATS]
Division of Preclinical Innovation [DPI]
U.S. Environmental Protection Agency [EPA]
National Institutes of Environmental Health Sciences [NIEHS]
National Toxicology Program [NTP]
U.S. Food and Drug Administration [FDA]
Oxidative stress has been implicated in the pathogenesis of a variety of diseases ranging from cancer to neurodegeneration. The antioxidant response element (ARE) signaling pathway plays an important role in the amelioration of oxidative stress. The KeratinoSens (Givaudan, Switzerland) is an in vitro test method which quantifies luciferase induction as a measure of activation of Keap1-Nrf2-antioxidationt/electrophile response element (ARE) dependant pathway in HaCaT human keratinocytes stably transfected with a selectable plasmid. The KeratinoSens assay is a cell-based assay with a reporter cell line to detect potential skin sensitizers by their ability to induce the Nrf2/ARE-response. The activation of the report gene under culture conditions can be detected by ONE-Glo Luciferase Assay System (Promega, Madison, WI). This cell line has been used to screen the Tox21 10K compound library to identify agonists that induce oxidative stress. The cytotoxicity of the Tox21 compound library against the KS-ARE cell line was tested in parallel by measuring the cell viability using CellTiter- Fluor assay system (Promega, Madison, WI) in the same wells.
HaCaT derived cell line KeratinoSens were dispensed at 1,500 cells/5uL/well in 1536-well white wall/solid bottom plates using a Multidrop Combi (ThermoFisher Scientific, Waltham, MA) dispenser. After the assay plates were incubated at 37 C/5% CO2 for 5 h, 23 nL of compounds dissolved in DMSO, positive controls or DMSO only was transferred to the assay plate by a pintool workstation (Kalypsys, San Diego, CA). The plates were incubated at 37 C/5% CO2 for 23 h, followed by addition of 1uL/well of CellTiter-Fluor reagent into the assay plates using a Flying Reagent Dispenser (Aurora Discovery, San Diego, CA) for cell viability readout that measures cytotoxicity. After 1 h incubation at 37 C/5% CO2 the fluorescence intensity was measured using a ViewLux (PerkinElmer, Shelton, CT) plate reader. Then 4uL/well of One-Glo were added using a Flying Reagent Dispenser. After the plates were incubated at room temperature for 30 min, the luminescence intensity in the assay plates was measured using ViewLux plate reader.

[3] = target: Gonadotropin-releasing hormone receptor (Homo sapiens) (UniProt P30968); assay: Human gonadotropin-releasing hormone receptor (GnRHR) small molecule agonists, calcium flux assay in GnRHR-HEK293 cells (AID 1920063); details: calcium flux fluorescence, agonist mode, hits give high values; at 57.6 µM (top of the series) unless noted; further: nearly all actives have a fitted effect of over 35% in size
In short: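 Intracellular calcium rise is the read-out: engineered human GnRHR HEK293 cells, dye-loaded, are exposed to DMSO-dissolved compounds and fluorescence at Ex/Em 480/540 is tracked for 3 min.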

[4] = target: KiSS-1 receptor (Homo sapiens) (UniProt Q969F8); assay: Human kisspeptin (KISS1R) small molecule agonists, calcium flux assay in KISS1R-HEK293 cells (AID 1920064; active means well fitted curve in the direction sought with a large enough effect in the repeat runs; an effect the other way counts as inactive or inconclusive); details: KISS1R-HEK293, calcium flux fluorescence, agonist; at 76.8 µM (top of the series) unless noted
In short: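 Concentration-response testing used 15 concentrations in triplicate on human KISS1R-expressing HEK293 cells. Calcium-dependent fluorescence (Ex/Em 480/540) was followed kinetically for 3 min after compound transfer.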

[5] = G protein-coupled receptor (GPCR) small molecule agonists, calcium flux assay: HEK293 wild type cell line counter screen (AID 1920065); details: HEK293 WT calcium flux, fluorescence, agonist mode; at 57.6 µM (top of the series) unless noted
In short: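 Fluorescence intensity signals activation. After overnight (18 h) culture and a 1 h calcium dye load at 37 C, compounds are added by pin tool and the plate read at 480/540 nm for 3 min in 1 s steps.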

[6] = p53 small molecule agonists, cell-based qHTS assay with human liver microsomes (AID 1963577); details: HCT-116 p53RE-bla with human liver microsomes, ratio, 16 h; at 66 µM (top of the series) unless noted
In short: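 p53RE-bla reporter cells were pre-incubated 5 h at 37 C, then treated with compounds plus human liver microsomes (0.5 mg/mL final) and NADPH (0.5 mg/mL final) for 16 h at 37 C. Beta-lactamase activity was read by LiveBLAzer fluorescence after 2 h at room temperature.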

[7] = p53 small molecule agonists, cell-based qHTS assay with rat liver microsomes (AID 1963578); details: HCT-116 p53RE-bla, beta-lactamase ratio, 16 h; at 66 µM (top of the series) unless noted
In short: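 p53RE-bla cells were exposed to compounds together with rat liver microsomes (0.5 mg/mL final) and NADPH (0.5 mg/mL final) for 16 h at 37 C, then read by LiveBLAzer beta-lactamase fluorescence after 2 h at room temperature.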

[8] = p53 small molecule agonists, cell-based qHTS assay with human liver microsomes: qHTS cell viability counter screen (AID 1963579); details: p53RE-bla HCT-116 viability, ATP luminescence, 16 h, HLM; at 66 µM (top of the series) unless noted; further: nearly all actives have a fitted effect of over 45% in size
In short: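 p53RE-bla cells (4,000/well) were pre-incubated 5 h at 37 C, then given compounds in DMSO plus human liver microsomes (0.5 mg/mL final) and NADPH (0.5 mg/mL final) for 16 h at 37 C. Viability was read by CellTiter-Glo luminescence.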

[9] = p53 small molecule agonists, cell-based qHTS assay with rat liver microsomes: qHTS cell viability counter screen (AID 1963580); details: p53RE-bla HCT-116 + rat microsomes, ATP viability, 16 h; at 66 µM (top of the series) unless noted; further: nearly all actives have a fitted effect of over 45% in size
In short: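 Counter screen for cytotoxicity under metabolic activation: rat liver microsomes and NADPH, 0.5 mg/mL final each, added with compounds to p53RE-bla HCT-116 cells; 16 h at 37 C, then ATP luminescence read.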

[10] = p53 small molecule agonists, cell-based qHTS assay: qHTS cell viability counter screen (AID 1963581); details: p53RE-bla HCT-116 viability, ATP luminescence, 16 h; at 66 µM (top of the series) unless noted; further: nearly all actives have a fitted effect of over 45% in size
In short: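 Luminescence from CellTiter-Glo, reflecting ATP content, serves as the cytotoxicity measure; it is taken after the 2 h reporter substrate step in HCT-116 p53RE-bla cells dosed for 16 h at 37 C.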

[11] = p53 small molecule agonists, cell-based qHTS assay (AID 1963582; active means well fitted activation curve with a large enough effect in the signal ratio in the repeat runs, not every such curve was filed as active; the % refers to the signal ratio); details: HCT-116 p53RE-bla reporter, beta-lactamase FRET ratio, 16 h; at 66 µM (top of the series) unless noted
In short: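 After plating, p53RE-bla cells sat 5 h in the incubator; compounds or DMSO vehicle were pinned in; a 16 h incubation at 37 C followed; FRET substrate was added and, 2 h later at RT, fluorescence was measured.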

[12] = target: 5-hydroxytryptamine receptor 2A (Homo sapiens) (UniProt P28223); assay: 5-hydroxytryptamine receptor 2A (HTR2A) small molecule antagonists, cell-based qHTS assay (AID 1963586); details: HTR2A-CHO cells, DOI-induced calcium flux, fluorescence; at 61.5 µM (top of the series) unless noted; further: nearly all actives have a fitted effect of over 45% in size
In short: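 CHO cells stably expressing human HTR2A were plated for 18 h at 37 C, then loaded with calcium dye for 1 h. Compounds were preincubated 5 min at room temperature before DOI (4 nM solution) was added. Kinetic fluorescence was read for 3 min.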

[13] = target: 5-hydroxytryptamine receptor 2A (Homo sapiens) (UniProt P28223); assay: 5-hydroxytryptamine receptor 2A (HTR2A) small molecule agonists, cell-based qHTS assay (AID 1963587); details: HTR2A-CHO cells, calcium flux fluorescence, agonist mode; at 76.8 µM (top of the series) unless noted; further: nearly all actives have a fitted effect of over 30% in size
In short: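 HTR2A-CHO cells, plated 18 h at 37 C/5% CO2, dye-loaded 1 h at 37 C; compounds in DMSO added by pin tool (agonist mode). Intracellular calcium flux read as kinetic fluorescence on FDSS over 2 min at 1 s intervals.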

[14] = target: Muscarinic acetylcholine receptor M1 (Homo sapiens) (UniProt P11229); assay: Cholinergic receptor muscarinic 1 (CHRM1) small molecule agonists, cell-based qHTS assay (AID 1963589); details: CHRM1-CHO cells, agonist mode, calcium flux fluorescence; at 76.8 µM (top of the series) unless noted; further: nearly all actives have a fitted effect of over 35% in size
In short: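 Fluorescent calcium dye reports M1 activation in stably transfected CHO cells. Compounds, 15 concentrations, added after 1 h dye loading at 37 C; kinetic reading at 1 sec intervals.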

[15] = cAMP Responsive Elements (CRE) small molecule agonists, cell-based qHTS assay (AID 1963590); details: CRE-bla HEK293T, beta-lactamase FRET ratio, 3 h; at 92.4 µM (top of the series) unless noted
In short: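 Compound exposure lasted 3 h at 37 C/5% CO2 in CRE-bla HEK 293T cells grown in assay medium with 10% dialyzed FBS and 25 mM HEPES. Reporter signal came from LiveBLAzer B/G FRET substrate, 2 h, room temperature.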

[16] = cAMP Responsive Elements (CRE) small molecule antagonists, cell-based qHTS assay (AID 1963591; active means well fitted inhibition curve with a large enough effect in the signal ratio in the repeat runs, not every such curve was filed as active; the % refers to the signal ratio); details: CRE-bla HEK293T, beta-lactamase FRET ratio; at 92.4 µM (top of the series) unless noted
In short: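 Stimulation used NKH477 at a final 0.25 uM for 3 h in compound-treated CRE-bla HEK293T cells, seeded 18 h beforehand. Reporter activity was measured with LiveBLAzer B/G FRET substrate after 2 h at room temperature.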

[17] = target: Beta-2 adrenergic receptor (Homo sapiens) (UniProt P07550); assay: Adrenergic beta2 receptor (ADRB2) small molecule antagonists, cell-based qHTS assay (AID 1963592); details: CHO-ADRB2 cells, isoproterenol-stimulated cAMP HTRF ratio, 0.5 h; at 92.4 µM (top of the series) unless noted; further: nearly all actives have a fitted effect of over 50% in size
In short: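 Assay format: CHO-ADRB2 cells, 18-20hr seeding at 37C/5% CO2, then compound plus 1nM isoproterenol agonist mix for 0.5hr RT. Homogeneous time-resolved fluorescence cAMP detection after 1hr, expressed as 665/615 nm ratio.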

[18] = target: D(2) dopamine receptor (Homo sapiens) (UniProt P14416); assay: Dopamine D2 receptor (DRD2) small molecule agonists, cell-based qHTS assay (AID 1963594); details: HEK293-DRD2 cAMP HTRF, agonist mode, 30 min; at 92.4 µM (top of the series) unless noted; further: nearly all actives have a fitted effect of over 35% in size
In short: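 HEK293 cells stably expressing DRD2 were cultured 24 h at 37 C, then given Ro20-1724 (0.1 mM final) and compounds for 10 min at room temperature. NKH477 (200nM) was then added for 30 min. cAMP was read by HTRF.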

[19] = target: D(2) dopamine receptor (Homo sapiens) (UniProt P14416); assay: Dopamine D2 receptor (DRD2) small molecule antagonists, cell-based qHTS assay (AID 1963595; active means well fitted inhibition curve with a large enough effect in the signal ratio in the repeat runs, with a control signal flat; the % refers to the signal ratio); details: HEK293-DRD2 cAMP HTRF antagonist mode; at 92.4 µM (top of the series) unless noted
In short: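 HTRF cAMP read-out at 665 and 620 nm emission (340 nm excitation). Antagonist mode: compounds were tested against 12 nM quinpirole in DRD2-HEK293 cells, with 200 nM NKH477 raising cAMP and 0.1 mM Ro20-1724 blocking its breakdown.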

[20] = target: Muscarinic acetylcholine receptor M1 (Homo sapiens) (UniProt P11229); assay: Cholinergic receptor muscarinic 1 (CHRM1) small molecule antagonists, cell-based qHTS assay (AID 1963588); details: CHRM1-CHO antagonist mode, calcium flux fluorescence; at 61.5 µM (top of the series) unless noted; further: nearly all actives have a fitted effect of over 40% in size
In short: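 Compounds were tested at 15 concentrations in three independent runs. Dye-loaded CHRM1-CHO cells were exposed 5 min at room temperature before stimulation by acetylcholine added at 50nM. Intracellular calcium was read kinetically on FDSS for 3 min.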
On the % scale 0 is the no-effect control and ±100 the full control effect.

CCC(=O)N(c1ccccc1)C1CCNCC1
inactive: activity change, negative = cytotoxicity [1] 0.818% [at 42.5 µM] | activity, positive = activation [2] -0.381% [at 42.5 µM] | activity change [3] 0.696% [at 26.4 µM] | activation [4] -0.982% [at 35.3 µM] | activation [5] -0.0116% [at 26.5 µM] | activation [6] -0.506% [at 30.3 µM] | activation [7] -0.889% [at 30.3 µM] | activity change, negative = cytotoxicity [8] -0.0139% [at 30.3 µM] | activity change, negative = cytotoxicity [9] 1.41% [at 30.3 µM] | activity change, negative = cytotoxicity [10] -8.35% [at 30.3 µM] | activation [11] -0.21% [at 30.3 µM] | activity, negative = inhibition [12] -4.29% [at 28.5 µM] | activation [13] -13% [at 35.6 µM] | activation [14] -0.507% [at 35.3 µM] | activation [15] -0.618% [at 42.5 µM] | activity change, negative = inhibition [16] 3% [at 42.4 µM] | activity change, negative = inhibition [17] -4.61% [at 42.5 µM] | activation [18] -0.98% [at 42.5 µM] | activity change, negative = inhibition [19] 3.17% [at 42.5 µM]

CCOP(=O)(Cl)Cl
inactive: activity change, negative = cytotoxicity [1] 6.37% and 1.8% | activity, positive = activation [2] -7.89% | activity change [3] -0.669% and -0.0069% | activation [4] -4.67% and -2.71% | activation [5] -0.302% and 0.092% | activation [6] 0.0321% and 1.85% | activation [7] 0.166% and -3.26% | activity change, negative = cytotoxicity [8] -0.412% and 5.63% | activity change, negative = cytotoxicity [9] 6.72% and 4.95% | activity change, negative = cytotoxicity [10] -1.97% and -15.4% | activation [11] -7.99% and -2.41% | activity, negative = inhibition [12] 12% and 5.15% | activation [13] 2.72% and -4.33% | activity, negative = inhibition [20] 3.02% and -8.6% | activation [14] 0.174% and -0.452% | activation [15] -0.0762% | activity change, negative = inhibition [16] 16.1% and -5.52% | activity change, negative = inhibition [17] 3.24% and 0.895% | activation [18] 3.08% and -0.123% | activity change, negative = inhibition [19] 7.9% and 3.07%
